The values below are quoted from earlier work in patent US20050220865A1, “Compressed composition comprising magnesium salt” (priority 2004, published 2005).

The conditions of the data set: cited from earlier work.

Take magnesium gluconate [Mg Gluconate]: the “USP 27/NF22 Solubility” value (USP 27/NF22 solubility term) was “Freely Soluble”. For the same substance, for the setting “neutral water”, the “Solubility in Neutral Water” value is given as 16 g/100 mL.
